Measured values reported in ChEMBL document CHEMBL1129090, “Potent fluoromethyl ketone inhibitors of recombinant human calpain I” (Bioorg Med Chem Lett, 1996).

Biological target: T1, Calpain-1 catalytic subunit (Homo sapiens) (UniProt P07384)
T1 sequence (whole entry): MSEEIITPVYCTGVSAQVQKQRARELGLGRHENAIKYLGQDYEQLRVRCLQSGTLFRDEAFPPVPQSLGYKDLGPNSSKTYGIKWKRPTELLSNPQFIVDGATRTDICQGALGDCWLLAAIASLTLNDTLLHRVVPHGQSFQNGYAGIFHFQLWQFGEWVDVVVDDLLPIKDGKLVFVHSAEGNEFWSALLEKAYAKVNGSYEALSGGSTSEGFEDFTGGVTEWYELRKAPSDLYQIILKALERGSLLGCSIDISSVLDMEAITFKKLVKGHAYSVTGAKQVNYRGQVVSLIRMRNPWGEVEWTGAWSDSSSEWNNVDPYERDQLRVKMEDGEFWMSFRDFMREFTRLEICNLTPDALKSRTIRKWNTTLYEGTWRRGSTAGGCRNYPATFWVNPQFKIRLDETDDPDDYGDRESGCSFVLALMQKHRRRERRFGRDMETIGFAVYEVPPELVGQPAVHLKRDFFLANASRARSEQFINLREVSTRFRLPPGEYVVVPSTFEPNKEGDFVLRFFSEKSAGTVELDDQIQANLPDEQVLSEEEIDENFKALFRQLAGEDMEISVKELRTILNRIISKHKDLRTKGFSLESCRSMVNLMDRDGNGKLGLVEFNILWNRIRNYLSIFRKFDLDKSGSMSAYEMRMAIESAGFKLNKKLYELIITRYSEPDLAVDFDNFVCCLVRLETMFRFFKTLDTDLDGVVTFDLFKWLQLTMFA
Assay: Compound was tested for inhibitory activity against recombinant human Calpain 1

K obs / 1: 276000 M⁻¹ s⁻¹
Structure (SMILES): CC(C)C[C@H](NC(=O)N1CCc2ccccc2C1)C(=O)NC(Cc1ccccc1)C(=O)CF (stereo partly specified)
